Target: WT STING (Homo sapiens, UniProt Q86WV6, H232R)
Test: 293T wt STING reporter assay
Type: cell-based
Design: host or cells: 293T (ATCC CRL-3216), stably transfected; also carries the 4xISRE firefly luciferase reporter
Conditions: 293T WT STING EC50, 293T wtSTING-FL cells, no digitonin, 7 h incubation, ISRE firefly luciferase reporter
Description: Two complementary oligonucleotides of the sequence […] CTTGGAAAAC […] […] (SEQ ID NO: 1) and […] TCACTTTCCAAGATCTTT (SEQ ID NO:2) containing four interferon-sensitive response elements (ISRE) were synthesized by Sigma Aldrich (Czech Republic, Prague). The oligonucleotides were mixed in equal molar amounts, hybridized, and cleaved by restriction endonucleases HindIII (cat. #. R^0104S, NEB, Ipswich, USA) and BglII (cat. # R^0144S, NEB, Ipswich, USA). Ultimately, they were ligated into plasmid pGL4.27 (cat. # E6651, Promega, Madison, USA) linearized with the same enzymes. As a result, the sequence with four ISRE sites was placed upstream of the minimum promoter of firefly luciferase reporter gene.
293T cells (cat. # CRL-3216, ATCC, Manassas, USA) were seeded a day before transfection at density 125,000 cells per cm^2 onto poly-D-lysine (cat. # P6407, Sigma Aldrich, Czech Republic) coated six well plates in antibiotic free DMEM with high glucose (cat. # D5796, Sigma Aldrich, Czech Republic) supplemented with 10% heat inactivated FBS (cat. # S1520, Biowest, Riverside, USA). […]

The chains behind the UniProt entries cited, without tags or fusion partners.
UniProt Q86WV6, whole entry H232R: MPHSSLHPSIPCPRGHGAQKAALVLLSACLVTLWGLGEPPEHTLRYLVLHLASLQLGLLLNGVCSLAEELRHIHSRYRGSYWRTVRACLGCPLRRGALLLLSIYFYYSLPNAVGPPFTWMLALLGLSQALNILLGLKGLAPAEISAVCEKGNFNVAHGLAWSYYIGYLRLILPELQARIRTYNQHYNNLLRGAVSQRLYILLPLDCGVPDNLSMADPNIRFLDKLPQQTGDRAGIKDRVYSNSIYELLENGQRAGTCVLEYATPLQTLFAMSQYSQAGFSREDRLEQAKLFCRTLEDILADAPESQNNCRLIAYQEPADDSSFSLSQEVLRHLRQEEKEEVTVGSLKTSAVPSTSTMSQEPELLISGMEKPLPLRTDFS

Row | SMILES | EC50
1 | CC(C)(C)C(=O)OCSP1(=O)OC[C@H]2O[C@@H](n3cnc4c(N)ncnc43)[C@H](F)[C@@H]2OP(=O)(SCOC(=O)C(C)(C)C)OC[C@H]2C[C@@H](n3cnc4c(=O)[nH]cnc43)[C@H](O1)[C@@H]2F (single isomer, unassigned) [Compound 129a] | 11 µM
2 | CC(C)(C)C(=O)OCSP1(=O)OC[C@H]2O[C@@H](n3cnc4c(N)ncnc43)[C@H](F)[C@@H]2OP(=O)(SCOC(=O)C(C)(C)C)OC[C@H]2C[C@@H](n3cnc4c(=O)[nH]cnc43)[C@H](O1)[C@@H]2F (single isomer, unassigned) [Compound 129d] | 0.4 µM
